The text below walks through data of article PMC12655037, “Mitochondrial-Targeted Triphenylphosphonium-Conjugated Ionophores with Enhanced Cytotoxicity in Cancer Cells” (Molecules, 2025).

Test [1] deals with A549 human lung cancer cells. The test can be described thus: MTT assay, A549 cells. It is filed as cell-based. The following applies: for Selectivity index (SI) HaCaT / A549: SI = IC50 HaCaT/IC50 A549; for Selectivity index (SI) V79 / A549: SI = IC50 V79/IC50 A549. Background: Formazan colour is commonly taken as a measure of viable cells.
Test [2] deals with SW480 human primary colon cancer cells. The test can be described thus: MTT assay, SW480 cells. It is filed as cell-based. The following applies: for Selectivity index (SI) V79 / SW480: SI = IC50 V79/IC50 SW480; for Selectivity index (SI) HaCaT / SW480: SI = IC50 for normal cell line (HaCaT)/IC50 for cancer cell line (SW480).
For the next test, the system named is MDA-MB-231 cells. The test can be described thus: Mitochondrial ROS generation (MitoROS 580), MDA-MB-231. The following applies: MDA-MB-231, 6 h and 12 h at IC50 concentration.
Test [3] concerns MiaPaCa human pancreas cancer cells. The test can be described thus: MTT assay, MiaPaCa cells. It is filed as cell-based. The following applies: for Selectivity index (SI) HaCaT / MiaPaCa: SI = IC50 HaCaT/IC50 MiaPaCa; for Selectivity index (SI) V79 / MiaPaCa: SI = IC50 V79/IC50 MiaPaCa.
In test [4] the test system is MDA-MB-231 human breast cancer cells. The test can be described thus: MTT assay, MDA-MB-231 cells. It is filed as cell-based. As to conditions: for Selectivity index (SI) HaCaT / MDA-MB-231: SI = IC50 HaCaT/IC50 MDA-MB-231; for Selectivity index (SI) V79 / MDA-MB-231: SI = IC50 V79/IC50 MDA-MB-231.
A further test has as its system A549 cells. The test can be described thus: Mitochondrial ROS generation (MitoROS 580), A549. As to conditions: A549, 6 h and 12 h at IC50 concentration.
Test [5] has as its system SW620 human metastatic colon cancer cells. The test can be described thus: MTT assay, SW620 cells. The following applies: for Selectivity index (SI) HaCaT / SW620: SI = IC50 HaCaT/IC50 SW620; for Selectivity index (SI) V79 / SW620: SI = IC50 V79/IC50 SW620. It is filed as cell-based.
For test [6], the system named is PC3 human metastatic prostate cancer cells. The test can be described thus: MTT assay, PC3 cells. The following applies: for Selectivity index (SI) HaCaT / PC3: SI = IC50 HaCaT/IC50 PC3; for Selectivity index (SI) V79 / PC3: SI = IC50 V79/IC50 PC3. It is filed as cell-based.
The test system of another test is breast cancer stem cells. The following applies: greater selectivity than paclitaxel; cited from earlier work.

For the molecule `CCC1(C2OC(C3OC(O)(Cn4cc(C[P+](c5ccccc5)(c5ccccc5)c5ccccc5)nn4)C(C)CC3C)CC2C)CCC(C2(C)CCC3(CC(O)C(C)C(C(C)C(OC)C(C)C(=O)O)O3)O2)O1` (centres unmarked) [2a], in test [1], the Selectivity index (SI) HaCaT / A549 was determined as 2 and the Selectivity index (SI) V79 / A549 is 16.7. In test [2], the Selectivity index (SI) V79 / SW480 was found to be 10 and the Selectivity index (SI) HaCaT / SW480 amounted to 1.2. Also, in the test with MDA-MB-231 cells, the “mitochondrial ROS (mtROS) production” value is listed as “induced mtROS production”. In [3], this molecule came in with a Selectivity index (SI) HaCaT / MiaPaCa of 2 and a Selectivity index (SI) V79 / MiaPaCa of 16.7. For the same molecule, in test [4], the Selectivity index (SI) HaCaT / MDA-MB-231 was determined as 0.9 and the Selectivity index (SI) V79 / MDA-MB-231 was determined as 7.1. In the test with A549 cells, the “mitochondrial ROS (mtROS) production” value is given as “lack of electron transport chain ROS generation”. In test [5], the Selectivity index (SI) HaCaT / SW620 is 0.9 and the Selectivity index (SI) V79 / SW620 was 7.1. In [6], this molecule displayed a Selectivity index (SI) HaCaT / PC3 of 1.5 and a Selectivity index (SI) V79 / PC3 of 12.5.

Consider `CC[C@@H](C(=O)[C@@H](C)[C@@H](O)[C@H](C)[C@@H]1O[C@@H]([C@@H](CC)C(=O)O)CC[C@@H]1C)[C@H]1O[C@]2(C=C[C@@H](O)[C@]3(CC[C@@](C)([C@H]4CC[C@](O)(CC)[C@H](C)O4)O3)O2)[C@H](C)C[C@@H]1C` [SAL, Salinomycin, reference compound], for which the “selectivity of tumor growth inhibition in vivo relative to paclitaxel” value in the test on breast cancer stem cells is listed as “approximately 100 fold”. In test [1], this molecule registered a Selectivity index (SI) HaCaT / A549 of 0.4 and a Selectivity index (SI) V79 / A549 of 0.8. Moreover, in [2], the Selectivity index (SI) V79 / SW480 was 1.1 and the Selectivity index (SI) HaCaT / SW480 was found to be 0.5. Moreover, the “mitochondrial ROS (mtROS) production” value in the test on MDA-MB-231 cells is on record as “induced mtROS production”. In [3], this molecule came in with a Selectivity index (SI) HaCaT / MiaPaCa of 0.2 and a Selectivity index (SI) V79 / MiaPaCa of 0.5. In test [4], this molecule returned a Selectivity index (SI) HaCaT / MDA-MB-231 of 0.6 and a Selectivity index (SI) V79 / MDA-MB-231 of 1.2. Besides, in the test with A549 cells, the “mitochondrial ROS (mtROS) production” value is “induced mtROS production”. Moreover, in test [5], the Selectivity index (SI) HaCaT / SW620 was 0.4 and the Selectivity index (SI) V79 / SW620 was 0.8. In test [6], this molecule came in with a Selectivity index (SI) HaCaT / PC3 of 0.2 and a Selectivity index (SI) V79 / PC3 of 0.4.
